For five compounds, IC50 results are on record in patent US20240025918A1, “KRAS G12D Inhibitors” (Jacobio Pharmaceuticals Co., Ltd, priority 2020, published 2024).

Chains of the proteins cited; added tags and fusions are not shown. Residues count along the entry.
UniProt P01116, 1-169 isoform 2 G12D limits assumed: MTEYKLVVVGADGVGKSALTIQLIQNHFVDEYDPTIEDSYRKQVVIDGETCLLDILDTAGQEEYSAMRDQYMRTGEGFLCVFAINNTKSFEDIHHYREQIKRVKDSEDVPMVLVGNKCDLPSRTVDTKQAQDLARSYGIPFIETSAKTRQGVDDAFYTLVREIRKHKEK

Broadly, the IC50 is the point on the concentration scale where inhibition reaches its midpoint.

The target of experiment [1] is GDP-loaded HIS-KRAS(G12D, aa 1-169) (Homo sapiens, UniProt P01116, G12D). Briefly: SOS1 catalyzed nucleotide exchange assay (TR-FRET). Particulars: 4 hours at 25° C. On the procedure:
GDP-loaded HIS-KRAS(G12D, aa 1-169) was pre-incubated with a compound in the presence of 10 nM GDPin a 384-well plate (Greiner) for 15 min, then purified SOS1 ExD(Flag tag, aa 564-1049), BODIPY™ FL GTP (Invitrogen) and MAb (monoclonal antibody) Anti 6HIS-Tb cryptate Gold (Cisbio) were added to the assay wells (Final concentration: 1.5 nM GDP-loaded HIS-KRAS(G12D), 5 nM GDP, 0.5 μM SOS1 ExD, 80 nM BODIPY™ FL GTP, 52.5 ng/mL MAb Anti 6HIS-Tb cryptate Gold) and incubated for 4 hours at 25° C. Wells containing same percent of DMSO served as vehicle control, and wells without KRAS served as low control. TR-FRET signals were read on Tecan Spark multimode microplate reader. The parameters were F486: Excitation 340 nm, Emission 486 nm, Lag time 100 μs, Integration time 200 μs; F515: Excitation 340 nm, Emission 515 nm, Lag time 100 μs, Integration time 200 μs. TR-FRET ratios for each individual wells were calculated by equation: TR-FRET ratio=(Signal F515/Signal F486)*10000. The percent of activation of compounds treated wells were normalized between vehicle control and low control (% Activation=(TR-FRET ratioCompound treated−TR-FRET ratioLow control)/(TR-FRET ratioVehicle control−TR-FRET ratioLow control)*100%). Then the data were analyzed by fitting a 4-parameter logistic model or calculating in Excel to calculate IC50 values.
Background: In TR-FRET formats the signal depends on donor and acceptor labels being close together.

A further experiment relates to AGS. Briefly: Cell growth inhibition assay, AGS (CellTiter-Glo). Particulars: read-out: AGS IC50; AGS cell viability, 6 days incubation. On the procedure:
AGS cultured in F12K medium (Gibco) containing 10% fetal bovine serum (Gibco). Cells in culture medium were plated in 96-well plates at a concentration of 500 cells/well (100 μL/well) and allowed to attach overnight.
(§1) The next day, compounds were diluted in culture medium and added to the plates. After 6 days incubation in a 37° C./5% CO2 cell incubator, the cell viability was detected by CellTiter-Glo® Luminescent Cell Viability Assay kit (Promega). Luminescent signals were read on Tecan Spark multimode microplate reader and analyzed using a 4-parameter logistic model to calculate IC50 values.
Background: In ATP-based viability assays light output follows the ATP content of the culture.

The target in experiment [2] is GppNp-loaded HIS-KRAS(G12D, aa 1-169) and cRAF RBD (Homo sapiens, UniProt P01116, G12D). Briefly: GTP-KRAS and cRAF interaction assay (HTRF). Particulars: 2 hours at 25° C. The protocol: GppNp-loaded HIS-KRAS(G12D, aa 1-169) was pre-incubated with a compound in the presence of 200 μM GTP in a 384-well plate (Greiner) for 15 min, then cRAF RBD(GST tag, aa 50-132, CreativeBioMart), MAb Anti GST-d2 (Cisbio) and MAb Anti 6HIS-Tb cryptate Gold (Cisbio) were added to the assay wells (Final concentration: 2.0 nM GppNp-loaded HIS-KRAS(G12D), 100 μM GTP, 35 nM cRAF RBD, 1 μg/mL MAb Anti GST-d2, 52.5 ng/mL MAb Anti 6HIS-Tb cryptate Gold) and incubated for 2 hours at 25° C. Wells containing same percent of DMSO served as vehicle control, and wells without KRAS served as low control. HTRF signals were read on Tecan Spark multimode microplate reader and HTRF ratios were calculated under manufacturer's instructions. The percent of activation of compounds treated wells were normalized between vehicle control and low control (% Activation=(HTRF ratioCompound treated−HTRF ratioLow control)/(HTRF ratioVehicle control−HTRF ratioLow control)*100%). Then the data were analyzed by fitting a 4-parameter logistic model or calculating in Excel to calculate IC50 values.

The test system of experiment [3] is AGS cells expressing KRAS G12D. Kind of experiment: Phospho-ERK1/2(THR202/TYR204) HTRF assay. The note with it: Phospho-ERK1/2 in AGS cells, 2 hours incubation. The protocol: AGS cells expressing KRAS G12D were cultured in F12K medium (Gibco) containing 10% fetal bovine serum (Gibco). The AGS cells in culture medium were seeded in 96-well plates at a concentration of 40,000 cells/well and then put in a 37° C./5% CO2 cell incubator to incubate overnight. The next day, culture medium was removed and the compound diluted in assay medium (F12K, 0.1% FBS) was added in each well. After 2 hours incubation in a 37° C./5% CO2 cell incubator, the assay medium in 96-well plates was removed, then 50 μL of 1× blocking reagent-supplemented lysis buffer (Cisbio) was added and the plates were incubated at 25° C. for 45 min with shaking. 10 μL of cell lysates from the 96-well plates were transferred to a 384-well plate (Greiner) containing 2.5 μL/well HTRF® pre-mixed antibodies (Cisbio 64AERPEH). Incubate 4 hours at 25° C. and then read HTRF signals on Tecan Spark multimode microplate reader. The data were analyzed using a 4-parameter logistic model to calculate IC50 values.

For a further experiment, the system named is AsPC-1. Briefly: Cell growth inhibition assay, AsPC-1 (CellTiter-Glo). The note with it: read-out: AsPC-1 IC50; AsPC-1 cell viability, 6 days incubation. On the procedure: AsPC-1 cultured in RPMI-1640 medium (Gibco) containing 10% fetal bovine serum (Gibco). Cells in culture medium were plated in 96-well plates at a concentration of 1000 cells/well (100 μL/well) and allowed to attach overnight.
as §1

`C#Cc1cccc2cc(O)cc(-c3c(F)cc4c(N5CC6CCC(C5)N6)nc(OCC5(CN6CCC7(CC6)CC7(F)F)CC5)nc4c3F)c12` (single isomer, unassigned): the 50% inhibitory concentration (IC50) in experiment [1] came to 1.48 nM; in the experiment with AGS, 4.61 nM; in experiment [2], 17.3 nM; in experiment [3] it was 20.2 nM; with AsPC-1, 14.4 nM.

Regarding `C#Cc1cccc2cc(O)cc(-c3c(F)cc4c(N5CC6CCC(C5)N6)nc(OCC5(CN6C[C@H]7C[C@@H]6CO7)CC5)nc4c3F)c12` (single isomer, unassigned), the IC50 in experiment [1] is 1.01 nM; in the experiment on AGS, 0.688 nM; in experiment [3], 3.79 nM; with AsPC-1, 12.6 nM.

In the case of `C#Cc1cccc2cc(O)cc(-c3c(F)cc4c(N5CC6CCC(C5)N6)nc(OCC5(CN6CC7COCC7C6)CC5)nc4c3F)c12` (single isomer, unassigned) [Compound 24A], the figures for the IC50 in experiment [1] and in experiment [2] were above 100 nM and above 10000 nM, respectively.

On to `C#Cc1cccc2cc(O)cc(-c3c(F)cc4c(N5CC6CCC(C5)N6)nc(OCC5(CN6CC7COCC7C6)CC5)nc4c3F)c12` (single isomer, unassigned) [Compound 24B], for which the IC50 in experiment [1] came to 0.912 nM; in the experiment on AGS it was 2.82 nM; in experiment [2], 21.5 nM; in experiment [3] it was 7.67 nM; in the experiment with AsPC-1, 60.1 nM.

Consider `C#Cc1cccc2cc(O)cc(-c3c(F)cc4c(N5CC6CCC(C5)N6)nc(OCC5(CN6CC7CC6CO7)CC5)nc4c3F)c12` (single isomer, unassigned) [Compound 36A], for which the IC50 in experiment [1] amounted to 0.874 nM; in the experiment with AGS, 2.77 nM; in experiment [2] it was 19.2 nM; in experiment [3], 1.71 nM; in the experiment on AsPC-1, 11.8 nM.
